Experimental data as given in article PMC4412257, “2′,6′-Dimethylphenylalanine: A Useful Aromatic Amino Acid Surrogate for Tyr or Phe Residue in Opioid Peptides” (International Journal of Medicinal Chemistry, 2012).

Test system: δ-opioid receptor
Experiment: δ-opioid receptor binding, brain homogenate, versus [3H]DT
Design: species or system rat
Conditions: Table 1; ratio of Ki values

Substance: Tyr-Gly-Gly-Phe-Leu [ENK, reference compound]
- μ/δ: 1.69
